Curated experimental data: Henry's law constant values

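These are experimental values that the OPERA curators gathered from public databases to train and test their QSAR models. The files give a single number for a compound and property, which may rest on several reports. Method, purity and exact conditions of the single measurements are not given. A value may pool stereoisomers or salt forms, and the file does not say which form was measured. Some upstream entries may be estimates or bounds without being marked so.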

The Henry's law constant is on a log10 scale in atm·m3/mol (set defined at 25 °C); higher favours air over water.
The databases behind each value are named after "via".

compound	Henry's law constant (log10 atm·m3/mol)	via
CC(C)N(Cc1ccccc1)C(=O)C(C)(C)C	-6.83	OCHEM
CCNc1nc(Cl)nc(NC(C)(C)C)n1	-7.495	OCHEM
Fc1ccc(Oc2ccnc3cc(Cl)cc(Cl)c23)cc1	-6.502	OCHEM
CC(C)[C@@H](Nc1ccc(C(F)(F)F)cc1Cl)C(=O)OC(C#N)c1cccc(Oc2ccccc2)c1 (some centres undefined)	-8.927	OCHEM
NC(=O)CF	-7.652	OCHEM
COC(=O)N(OC)c1ccccc1COc1ccn(-c2ccc(Cl)cc2)n1	-10.28	OCHEM
Clc1ccc(C2(Cn3cncn3)OCCO2)c(Cl)c1	-10.07	OCHEM
CCOc1nc(NC)nc(NC(=O)NS(=O)(=O)c2ccccc2C(=O)OC)n1	-10.92	eChemPortal
COC(=O)C1(O)c2ccccc2-c2ccc(Cl)cc21 (stereo not given)	-8.108	OCHEM
Cc1cc(C)nc(NC(=O)NS(=O)(=O)c2ccccc2C(=O)OC2COC2)n1	-9.608	OCHEM
COP1(=S)OCc2ccccc2O1 (stereo not given)	-4.807	OCHEM
Cc1ccc(N(SC(F)(Cl)Cl)S(=O)(=O)N(C)C)cc1	-6.119	OCHEM
CCCCCCCCSC(=O)Oc1cc(Cl)nnc1-c1ccccc1	-8.923	OCHEM
CNC(=O)Oc1ccccc1C(C)C	-7.705	OCHEM
CC1(C)OC(c2ccco2)CN1C(=O)C(Cl)Cl (stereo not given)	-10.04	OCHEM
O=C(O)c1ccccc1C(=O)Nc1cccc2ccccc12	-2.718	OCHEM
O=C(NC(=O)c1ccccc1Cl)Nc1ccc(OC(F)(F)F)cc1	-7.753	OCHEM
OCC(O)CCl (stereo not given)	-7.215	OCHEM
CCCCN(CCCC)SN(C)C(=O)Oc1cccc2c1OC(C)(C)C2	-5.912	OCHEM
CC1(C)C(/C=C(\Cl)C(F)(F)F)C1C(=O)OC(C#N)c1cccc(Oc2ccccc2)c1 (stereo partly drawn)	-6.75	OCHEM
C=CCCC(=O)Cl	-6.02	eChemPortal
CSC1=N[C@@](C)(c2ccccc2)C(=O)N1Nc1ccccc1	-10.31	OCHEM
CCCC(=O)c1c(C)cc(C)c(C2CC(=O)C(C(CC)=NOCC)=C(O)C2)c1C (stereo not given)	-9.243	OCHEM
CNC(=O)ON=CC(C)(C)S(C)(=O)=O	-10.55	OCHEM
O=C(O)C(F)(F)C(F)(F)C(F)(F)C(F)(F)C(F)(F)F	-5.038	ICF
CCCSC(=O)N(CCC)CCC	-4.51	OCHEM
Clc1cc(Cl)nc(-c2ccccc2)n1	-4.964	OCHEM
CNC(=O)Oc1ccccc1C1OCCO1	-10.83	OCHEM
CCOCn1c(-c2ccc(Cl)cc2)c(C#N)c(Br)c1C(F)(F)F	-8.242	OCHEM
CNC(=O)Oc1cc(C)c(C)c(C)c1	-7.364	OCHEM
CCCCc1c(C)nc(N(C)C)nc1O	-8.599	OCHEM
CO/N=C(/C(=O)OC)c1ccccc1CO/N=C(\C)c1cccc(C(F)(F)F)c1	-7.644	OCHEM

Data: OPERA 2.9 data sets, kmansouri/OPERA on GitHub.